Molecular target: T1, muscarinic receptor (rat brain)
T1 construct: gene Chrm1; native receptors in particulate (40 000 g pellet) preparation of whole brain without cerebellum; subtype mixture not resolved
Assay: [3H]NMS displacement, rat brain membranes, filtration
Format: binding
Details: [3H]NMS 0.3 nM (0.5 nM in data analysis), 30 mM Na+/HEPES pH 7.5, 25 °C, 60 min; competitive

SMILES	IC50 [nM]
OCCOCCN1CCN(C(c2ccccc2)c2ccc(Cl)cc2)CC1 (stereo not shown) [Hydroxyzine]	9120
Cc1nccn1CCC(C(N)=O)(c1ccccc1)c1ccccc1 [Imidafenacin]	3.66
CC(CN1c2ccccc2Sc2ccccc21)N(C)C (stereo not shown) [Promethazine]	42.3
OC(CCN1CCCCC1)(c1ccccc1)C1CCCCC1 (stereo not shown) [Trihexyphenidyl]	10.4
OCCN1CCN(CCCN2c3ccccc3Sc3ccc(Cl)cc32)CC1 [Perphenazine]	7000
CC(C)[N+](C)(CCOC(=O)C1c2ccccc2Oc2ccccc21)C(C)C [Propantheline]	0.12
Fc1ccc([C@@H]2CCNC[C@H]2COc2ccc3c(c2)OCO3)cc1 [Paroxetine]	545
C=C[C@H]1CN2CC[C@H]1C[C@@H]2[C@@H](O)c1ccnc2ccc(OC)cc12 [Quinidine]	44600
COc1ccc2c(c1)N(C[C@H](C)CN(C)C)c1ccccc1S2 [Levomepromazine]	394
CN(C)CC/C=C1/c2ccccc2COc2ccc(CC(=O)O)cc21 [Olopatadine]	25100
